Columns and labels:
Urokinase (Abbokinase) = Urokinase (Abbokinase) (Homo sapiens, UniProt P00749); assay: Urokinase assay, chromogenic substrate S-2444; assay type: biochemical; details: read-out: Ki uPA; Ki calculated using the IC50 value; 30 minute incubation, HBSA buffer
Human rt-PA (Activase) = Human rt-PA (Activase) (Homo sapiens, UniProt P00750); assay: Recombinant tissue plasminogen activator (rt-PA) assay, chromogenic substrate Pefachrome t-PA; details: read-out: IC50 tPA; 30 minute incubation, HBSA buffer, rt-PA 1.0 nM

The chains behind the UniProt entries cited, without tags or fusion partners. Residues count along the entry.
UniProt P00750, 36-562 limits assumed: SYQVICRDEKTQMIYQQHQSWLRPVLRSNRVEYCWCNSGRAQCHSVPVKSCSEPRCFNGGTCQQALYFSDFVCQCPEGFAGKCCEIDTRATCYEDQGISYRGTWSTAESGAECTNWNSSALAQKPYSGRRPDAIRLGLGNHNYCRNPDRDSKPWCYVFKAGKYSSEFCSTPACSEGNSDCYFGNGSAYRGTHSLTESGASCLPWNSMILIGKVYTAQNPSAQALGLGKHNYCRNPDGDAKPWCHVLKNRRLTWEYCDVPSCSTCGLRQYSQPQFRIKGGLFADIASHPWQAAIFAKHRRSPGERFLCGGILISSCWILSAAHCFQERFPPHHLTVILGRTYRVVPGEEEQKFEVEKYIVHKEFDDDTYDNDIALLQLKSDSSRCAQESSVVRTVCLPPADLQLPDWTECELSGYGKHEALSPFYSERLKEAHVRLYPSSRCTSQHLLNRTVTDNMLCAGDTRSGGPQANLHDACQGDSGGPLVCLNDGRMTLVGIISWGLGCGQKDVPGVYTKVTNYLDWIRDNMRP

Ki (Urokinase (Abbokinase))	IC50 (Human rt-PA (Activase))	SMILES
< 100 nM	> 2500 nM	N=C(N)c1ccc(CNC(=O)[C@@H]2CCCN2C(=O)[C@@H](CO)NS(=O)(=O)CCc2ccccc2)cc1
< 100 nM	–	CCCCS(=O)(=O)N[C@H](CO)C(=O)N1CCC1C(=O)NCc1ccc(C(=N)N)cc1 (single isomer, unassigned)
